From US8852928B2, “LexA-based chemical-inducible gene expression system for use in transgenic animals” (Temasek Life Sciences Laboratory Limited, priority 2007, dated 2014)

Molecular target: T1, chimeric transcription factor consisting of Gal4 DNA binding domain, truncated human progesterone receptor ligand binding domain and NF-κB activation domain (Homo sapiens, UniProt P06401)
T1 sequence (P06401 640-914): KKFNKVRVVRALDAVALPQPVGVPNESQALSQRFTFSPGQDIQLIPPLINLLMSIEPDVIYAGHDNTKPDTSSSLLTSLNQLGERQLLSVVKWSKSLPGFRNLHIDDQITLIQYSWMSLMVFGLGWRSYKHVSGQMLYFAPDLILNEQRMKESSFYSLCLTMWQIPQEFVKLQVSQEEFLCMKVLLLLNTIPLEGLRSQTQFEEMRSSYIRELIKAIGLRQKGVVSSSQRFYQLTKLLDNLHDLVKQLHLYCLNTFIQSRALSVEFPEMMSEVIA
Test: Gal4/UAS-based mifepristone-inducible system in transgenic fish (SWD-G4 line)
Conditions: 1 μM at 10 hpf onwards

For `CC#C[C@]1(O)CC[C@H]2[C@@H]3CCC4=CC(=O)CCC4=C3[C@@H](c3ccc(N(C)C)cc3)C[C@@]21C` [mifepristone], the “Developmental phenotypes in fish harboring Gal4/UAS-based mifepristone-inducible system” value was “exhibited developmental phenotypes only upon induction”.
